Values of other authors in US20080261895A1, “Isolated hydroxy and n-oxide metabolites and derivatives of O-desmethylvenlafaxine and methods of treatment” (Wyeth, priority 2006, published 2008).

Sequences of proteins named here, by UniProt entry; tags and fusion partners are left off.
UniProt Q01959, whole entry: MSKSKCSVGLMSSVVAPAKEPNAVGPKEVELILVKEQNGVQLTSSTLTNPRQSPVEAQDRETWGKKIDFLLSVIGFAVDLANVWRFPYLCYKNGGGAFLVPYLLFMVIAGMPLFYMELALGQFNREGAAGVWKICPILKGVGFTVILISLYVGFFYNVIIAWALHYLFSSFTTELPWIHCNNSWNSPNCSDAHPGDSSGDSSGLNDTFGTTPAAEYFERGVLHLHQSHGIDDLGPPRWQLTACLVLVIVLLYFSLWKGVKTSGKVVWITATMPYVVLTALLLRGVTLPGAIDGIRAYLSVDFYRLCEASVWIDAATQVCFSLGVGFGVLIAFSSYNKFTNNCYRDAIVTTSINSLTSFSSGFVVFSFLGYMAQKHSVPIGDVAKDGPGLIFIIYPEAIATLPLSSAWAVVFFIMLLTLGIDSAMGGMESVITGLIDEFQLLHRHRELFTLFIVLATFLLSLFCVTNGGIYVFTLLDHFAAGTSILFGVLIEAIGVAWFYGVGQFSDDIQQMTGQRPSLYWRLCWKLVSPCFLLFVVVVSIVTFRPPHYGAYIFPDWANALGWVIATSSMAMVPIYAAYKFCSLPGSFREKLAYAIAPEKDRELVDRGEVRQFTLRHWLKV
UniProt P31645, whole entry: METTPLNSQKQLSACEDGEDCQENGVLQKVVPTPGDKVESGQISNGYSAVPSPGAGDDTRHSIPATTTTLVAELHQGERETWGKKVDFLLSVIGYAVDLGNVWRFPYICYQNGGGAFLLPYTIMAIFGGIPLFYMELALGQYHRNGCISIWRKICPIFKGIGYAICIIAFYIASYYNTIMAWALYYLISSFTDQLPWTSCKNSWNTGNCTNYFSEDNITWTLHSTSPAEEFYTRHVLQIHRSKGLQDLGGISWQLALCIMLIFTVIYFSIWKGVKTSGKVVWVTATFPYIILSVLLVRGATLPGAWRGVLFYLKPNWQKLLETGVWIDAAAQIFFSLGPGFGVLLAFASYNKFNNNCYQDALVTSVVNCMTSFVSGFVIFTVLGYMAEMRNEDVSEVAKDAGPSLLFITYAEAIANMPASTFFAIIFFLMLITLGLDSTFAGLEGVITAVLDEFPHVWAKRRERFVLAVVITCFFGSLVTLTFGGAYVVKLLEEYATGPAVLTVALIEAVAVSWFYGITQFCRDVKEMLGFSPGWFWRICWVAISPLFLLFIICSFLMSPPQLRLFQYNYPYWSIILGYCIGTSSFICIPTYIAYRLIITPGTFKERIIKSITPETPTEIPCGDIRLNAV
UniProt P23975, whole entry: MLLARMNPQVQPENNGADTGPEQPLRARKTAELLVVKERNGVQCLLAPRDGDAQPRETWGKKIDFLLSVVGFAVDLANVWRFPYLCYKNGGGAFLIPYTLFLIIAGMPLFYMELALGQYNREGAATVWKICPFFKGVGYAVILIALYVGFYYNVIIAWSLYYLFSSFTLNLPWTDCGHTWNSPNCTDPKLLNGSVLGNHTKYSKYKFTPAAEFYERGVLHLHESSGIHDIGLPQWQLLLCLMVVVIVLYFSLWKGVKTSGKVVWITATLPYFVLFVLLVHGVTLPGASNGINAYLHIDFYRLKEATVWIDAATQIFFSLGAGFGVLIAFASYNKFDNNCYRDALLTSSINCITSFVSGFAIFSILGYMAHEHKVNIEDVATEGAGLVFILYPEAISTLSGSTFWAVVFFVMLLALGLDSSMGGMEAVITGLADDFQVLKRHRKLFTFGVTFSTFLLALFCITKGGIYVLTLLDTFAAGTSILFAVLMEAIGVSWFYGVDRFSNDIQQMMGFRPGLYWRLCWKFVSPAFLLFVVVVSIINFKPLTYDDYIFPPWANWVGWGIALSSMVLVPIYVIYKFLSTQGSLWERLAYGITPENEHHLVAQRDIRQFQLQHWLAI

Tests used:
Dopamine reuptake = Dopamine reuptake (Homo sapiens, UniProt Q01959); conditions: in vitro; read-out: Inhibition of amine reuptake (IC50; uM): Dopamine; cited from earlier work
Serotonin reuptake = Serotonin reuptake (Homo sapiens, UniProt P31645); conditions: read-out: Inhibition of amine reuptake (IC50; uM): Serotonin; in vitro; cited from earlier work
Norepinephrine reuptake = Norepinephrine reuptake (Homo sapiens, UniProt P23975); conditions: read-out: Inhibition of amine reuptake (IC50; uM): Norepinephrine; in vitro; cited from earlier work

In the case of `CN(C)CC(c1ccc(O)cc1)C1(O)CCCCC1` (stereo not drawn) [O-DESMETHYLVENLAFAXINE, 1-[2-(dimethylamino)-1-(4-phenol)ethyl]-cyclohexanol], the IC50 (Dopamine reuptake) is given as 13.4 µM, the IC50 (Serotonin reuptake) is given as 0.18 µM and the IC50 (Norepinephrine reuptake) is given as 1.16 µM.
